From BindingDB's records for 17539825 (Chemdiv, 2007)

By UniProt entry, the sequences of proteins in these tests, tags left out. Residues count along the entry.
UniProt P17948, 27-1338 limits assumed: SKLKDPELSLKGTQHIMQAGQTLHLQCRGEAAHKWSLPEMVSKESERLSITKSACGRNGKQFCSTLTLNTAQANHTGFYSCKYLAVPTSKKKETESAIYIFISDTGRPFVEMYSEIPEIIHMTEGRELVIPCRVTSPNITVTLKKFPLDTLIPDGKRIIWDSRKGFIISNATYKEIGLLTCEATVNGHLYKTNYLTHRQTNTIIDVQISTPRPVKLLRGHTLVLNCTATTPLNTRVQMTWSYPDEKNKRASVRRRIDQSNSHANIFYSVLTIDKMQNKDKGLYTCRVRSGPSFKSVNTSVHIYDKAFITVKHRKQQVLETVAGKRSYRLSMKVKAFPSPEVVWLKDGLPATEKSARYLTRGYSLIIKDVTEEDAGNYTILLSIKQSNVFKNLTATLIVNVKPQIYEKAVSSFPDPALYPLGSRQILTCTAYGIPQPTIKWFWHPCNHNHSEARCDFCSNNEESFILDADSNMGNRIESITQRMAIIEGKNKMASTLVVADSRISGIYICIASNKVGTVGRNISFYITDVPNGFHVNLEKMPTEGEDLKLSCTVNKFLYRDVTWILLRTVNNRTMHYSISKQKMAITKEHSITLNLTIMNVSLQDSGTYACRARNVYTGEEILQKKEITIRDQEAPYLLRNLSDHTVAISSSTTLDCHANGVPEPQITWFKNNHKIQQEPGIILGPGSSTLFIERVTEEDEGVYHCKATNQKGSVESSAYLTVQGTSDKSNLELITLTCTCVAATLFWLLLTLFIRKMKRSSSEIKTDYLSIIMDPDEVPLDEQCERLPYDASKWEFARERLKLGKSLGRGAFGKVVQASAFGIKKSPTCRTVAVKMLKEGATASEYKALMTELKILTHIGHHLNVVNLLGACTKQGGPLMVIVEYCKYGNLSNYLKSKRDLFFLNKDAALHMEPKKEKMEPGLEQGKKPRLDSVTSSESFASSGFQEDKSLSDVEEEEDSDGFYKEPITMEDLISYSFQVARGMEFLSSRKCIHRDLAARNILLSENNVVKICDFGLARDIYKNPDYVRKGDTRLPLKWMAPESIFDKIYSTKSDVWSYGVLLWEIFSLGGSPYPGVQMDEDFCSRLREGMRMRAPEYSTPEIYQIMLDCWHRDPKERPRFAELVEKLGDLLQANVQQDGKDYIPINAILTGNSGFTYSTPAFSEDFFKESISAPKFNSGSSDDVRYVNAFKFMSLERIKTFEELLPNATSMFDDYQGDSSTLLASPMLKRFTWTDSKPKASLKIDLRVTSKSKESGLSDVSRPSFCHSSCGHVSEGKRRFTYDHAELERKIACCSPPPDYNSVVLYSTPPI
UniProt P35968, 20-1356 limits assumed: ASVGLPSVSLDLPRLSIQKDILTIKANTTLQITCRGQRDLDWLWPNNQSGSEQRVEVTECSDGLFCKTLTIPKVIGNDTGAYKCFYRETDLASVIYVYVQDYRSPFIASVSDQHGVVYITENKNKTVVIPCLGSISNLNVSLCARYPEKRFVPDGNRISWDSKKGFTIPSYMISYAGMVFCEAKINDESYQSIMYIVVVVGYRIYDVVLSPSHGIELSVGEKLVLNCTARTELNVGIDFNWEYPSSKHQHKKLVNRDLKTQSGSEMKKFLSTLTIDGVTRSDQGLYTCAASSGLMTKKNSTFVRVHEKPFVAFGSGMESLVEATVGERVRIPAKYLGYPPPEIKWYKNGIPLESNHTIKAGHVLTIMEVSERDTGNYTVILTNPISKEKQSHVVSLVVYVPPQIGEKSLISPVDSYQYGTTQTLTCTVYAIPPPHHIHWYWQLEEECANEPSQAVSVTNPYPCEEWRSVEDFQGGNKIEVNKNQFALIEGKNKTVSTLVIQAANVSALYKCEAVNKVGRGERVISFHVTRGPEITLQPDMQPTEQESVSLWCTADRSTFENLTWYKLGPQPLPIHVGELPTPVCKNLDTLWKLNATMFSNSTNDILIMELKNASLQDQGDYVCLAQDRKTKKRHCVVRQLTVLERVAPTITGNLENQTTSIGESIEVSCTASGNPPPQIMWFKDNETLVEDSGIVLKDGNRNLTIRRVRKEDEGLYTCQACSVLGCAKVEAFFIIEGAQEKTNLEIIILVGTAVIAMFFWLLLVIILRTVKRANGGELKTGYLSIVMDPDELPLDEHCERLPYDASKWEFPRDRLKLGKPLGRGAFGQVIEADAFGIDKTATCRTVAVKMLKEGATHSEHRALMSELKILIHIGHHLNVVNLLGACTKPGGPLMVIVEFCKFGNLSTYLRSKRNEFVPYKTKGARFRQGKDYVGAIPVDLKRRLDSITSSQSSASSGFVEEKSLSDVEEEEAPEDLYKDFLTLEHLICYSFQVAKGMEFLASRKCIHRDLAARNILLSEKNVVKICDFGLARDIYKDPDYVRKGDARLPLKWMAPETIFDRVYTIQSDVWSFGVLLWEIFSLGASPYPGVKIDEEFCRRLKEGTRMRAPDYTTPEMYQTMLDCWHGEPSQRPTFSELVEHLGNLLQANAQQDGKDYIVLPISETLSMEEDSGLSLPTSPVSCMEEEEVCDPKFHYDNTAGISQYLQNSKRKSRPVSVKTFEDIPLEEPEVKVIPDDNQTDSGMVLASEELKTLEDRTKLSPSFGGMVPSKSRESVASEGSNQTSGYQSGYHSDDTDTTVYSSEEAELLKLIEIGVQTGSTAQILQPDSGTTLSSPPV

Tests used:
[1] = biological target: Vascular endothelial growth factor receptor 1 (Homo sapiens, UniProt P17948); details: pH 7.5
[2] = biological target: Vascular endothelial growth factor receptor 2 (Homo sapiens, UniProt P35968); details: pH 7.5

O=P(O)(O)OP(=O)(O)n1cnc(-c2ccccc2Nc2ccncc2)n1
IC50 [1]: 940 nM
IC50 [2]: 780 nM
